Data: publication PMC8881501, “Identification of SARS-CoV-2 inhibitors targeting Mpro and PLpro using in-cell-protease assay” (Communications Biology, 2022)

What was measured:
SARS-CoV-2 = assay type: cell-based
SARS-CoV-2 PLpro = SARS-CoV-2 PLpro (Severe acute respiratory syndrome coronavirus 2, UniProt P0DTC1); assay: cell-based; conditions: HEK-293T, read-out: mEmerald-NLS nuclear/total fluorescence (protease activity) normalized to untreated cells
SARS-CoV-2 Mpro = SARS-CoV-2 Mpro (Severe acute respiratory syndrome coronavirus 2, UniProt P0DTC1); assay: In-cell protease (ICP) assay, Mpro construct in HEK293T cells; assay type: cell-based
[1] = HEK-293T, read-out: mEmerald-NLS nuclear/total fluorescence (protease activity) normalized to untreated cells

Structure (SMILES)	Selectivity index SI = CC50/EC50 (SARS-CoV-2)	remaining activity at 1 µM (SARS-CoV-2 PLpro)	remaining activity at 10 µM (SARS-CoV-2 PLpro)	effect on Mpro activity in cells (SARS-CoV-2 Mpro)	remaining activity at 1 µM (SARS-CoV-2 Mpro; [1])	remaining activity at 10 µM (SARS-CoV-2 Mpro; [1])
COC(=O)N[C@H](C(=O)N1CCC[C@H]1c1nc(-c2ccc(-c3ccc(-c4c[nH]c([C@@H]5CCCN5C(=O)[C@@H](NC(=O)OC)C(C)C)n4)cc3)cc2)c[nH]1)C(C)C [Daclastavir HCl]	20.2	50%	45%	did not detect a reduction in Mpro activity	–	–
COC(=O)N[C@H](C(=O)N1CCC[C@H]1c1ncc(-c2ccc(-c3ccc(-c4cnc([C@@H]5CCCN5C(=O)[C@@H](NC(=O)OC)C(C)C)[nH]4)cc3)cc2)[nH]1)C(C)C [Daclatasvir (BMS-790052)]	–	–	–	–	86%	63.3%

Counter-ions that a name gives are not always drawn.
